A selection: hits, their analogues and other compounds. The true share with any hit is near 1.4%.
MmCpn inh: inhibitors of Methanococcus maripaludis chaperonin TRiC (MmCpn) | purified Mm-Cpn ATPase, ADP Transcreener TR-FRET | Potency, µM (top dose mostly 76.9 µM), for inactives: at the top dose activity, negative = inhibition, usual class: inhibitors | hit rate 0.031% among 330,000 | AID 504842; active means well fitted inhibition curve with a large enough effect; inconclusive means small, poorly fitted or top-dose-only effect; further: potency means the concentration at half of the fitted maximal effect; on the % scale 0 is the no-effect control and ±100 the full control effect; nearly all actives have a fitted effect of over 80% in size
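Reaction buffer contained 30 mM Tris pH 7.4, 100 mM KCl, 5 mM MgCl2 and 1 mM DTT. Mm-CPN (25 nM final) hydrolysed 10 uM ATP over 30 min at 37°C; ADP was read by HTRF.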
Rango complex inh: Rango-importin beta binding inhibition; Q14974; Rango CFP/YFP FRET sensor + importin beta, 45 min; Potency, µM (highest dose often 92.2 µM), for the others: at the highest dose inhibition of complex formation; hit rate 0.031% among 340,000;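 further: potency means the concentration at half of the fitted maximal effect; 0% = DMSO wells and 100% = buffer wells lacking importin beta; nearly all actives have a fitted effect of over 15% in size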
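FRET biosensor Rango (snurportin 1 IBB between N-terminal EYFP and C-terminal Cerulean), 50 nM in PBS/1 mM DTT/0.02% Tween-20/0.1% BSA, preincubated 5 min RT with compound; 0.125 microM importin beta added, 45 min RT, CFP/YFP FRET ratio read.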
CCT chaperon mod: cytosolic chaperonin activity modulation; purified chaperonin ATPase assay, HTRF ADP detection, 30 min; activity change, % (concentration not given with the values), hits read low; hit rate 0.3% among 360,000; AID 651819; in the data active means activity change below about -30%; further: on the % scale 0 is the no-effect control and ±100 the full control effect
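Nucleotide hydrolysis assay: TRiC at 20–40 nM final (set by batch activity) with 10 uM ATP, 30 min at 37 °C, in presence of 76 uM compound. Detection by competitive ADP HTRF, 30 min ambient.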
hERG WT inh: KCNH2 (human, wildtype) channel inhibition. Q12809. U2OS, BacMam KCNH2, thallium flux FluxOr; active compounds read low. activity change, % at 1.84 µM. hit rate 0.37% among 340,000. AID 720551;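 active means maximum activity change below -70%; inconclusive means maximum activity change between -70% and -50%; inactive means maximum activity change above -50%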; further: on the % scale 0 is the no-effect control and ±100 the full control effect
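U2OS cells transduced with wild-type KCNH2 virus are loaded with FluxOr dye for 45 min, and thallium flux is measured in kinetic reads before and after stimulation buffer. Rate constants are normalized to DMSO controls.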
Rango dissoc inh: inhibitors of RanGTP-induced Rango-importin beta complex dissociation. Potency, µM (titrated, usually from 46.1 µM), inactives show at the highest dose activity change, negative = inhibition. AID 540253. hit rate 0.071% among 340,000. O95149+P62826. Biochemical FRET Rango-importin beta, RanGTP-induced dissociation; further: potency means the concentration at half of the fitted maximal effect; % of control where 0% means no effect; nearly all actives have a fitted effect of over 45% in size
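Rango (0.1 uM)–importin beta (0.25 uM) complex; RanGTP-RCC1 trigger; 45 min RT; CFP/YFP FRET read.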
KCNH2 3.1 inh: KCNH2 3.1 (human) potassium channel inhibition. AID 720553. U2OS KCNH2 3.1, thallium flux FluxOr; active compounds read low. hit rate 0.95% among 340,000. activity change, % (tested at about 1.8 µM);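 active means maximum activity change below -70%; inconclusive means maximum activity change from -70% to -50%; inactive means maximum activity change above -50%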;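 further: thallium influx rate constant from kinetic fluorescence after stimulation buffer; on the % scale 0 is the no-effect control and ±100 the full control effect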
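Thallium flux read-out: FluxOr dye with Red40 quencher in HBSS/HEPES, 45 min at RT. Rate constants from kinetic reads were normalized to positive and negative DMSO controls. Cells: U2OS virally expressing the 3.1 isoform.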
Numbers without * were called inactive. Unless noted, the call rests on the fitted dose curve.

`COc1cc(CCC(=O)OCC(=O)c2ccc[nH]2)cc(OC)c1OC` gave MmCpn inh 0%, Rango complex inh 0%, CCT chaperon mod -3, hERG WT inh -94*, Rango dissoc inh 3% and KCNH2 3.1 inh -2.
For COc1ccc(-c2cnc3c(NC(C)=O)cc(-c4cccc(C(=O)N(C)C)c4)cn23)cc1OC the results were CCT chaperon mod -33*.
`COc1ccc(-c2cnc3c(NC(C)=O)cc(-c4cccc(C(=O)NCCN(C)C)c4)cn23)cc1OC` gave CCT chaperon mod -1.
Screening CCn1c(=O)cc(SCC(=O)NCc2ccccn2)c2ccccc21 returned MmCpn inh 0%, Rango complex inh 0%, CCT chaperon mod -2, hERG WT inh 4, Rango dissoc inh 0% and KCNH2 3.1 inh -184*.
Screening CCn1c(=O)cc(SCC(=O)NCc2cccnc2)c2ccccc21 returned MmCpn inh 2%, Rango complex inh -2%, CCT chaperon mod 2, hERG WT inh 1, Rango dissoc inh 16% and KCNH2 3.1 inh -1.
For Cc1nc(N2CCN(c3ccccn3)CC2)c2c(C)c(C(=O)Nc3c(F)cc(F)cc3Br)sc2n1 the results were MmCpn inh inconclusive, Rango complex inh -3%, CCT chaperon mod -4, hERG WT inh -28, Rango dissoc inh -12% and KCNH2 3.1 inh -95*.
`Cc1c(C(=O)N2CCN(c3ccc(F)cc3)CC2)sc2ncnc(N3CCN(c4ccccn4)CC3)c12` gave MmCpn inh -26%, Rango complex inh -4%, CCT chaperon mod -2, hERG WT inh 3, Rango dissoc inh 14% and KCNH2 3.1 inh -76*.
For Cc1c(C(=O)N2CCN(c3ccccc3)CC2)sc2ncnc(N3CCN(c4ccccn4)CC3)c12 the results were MmCpn inh 0%, Rango complex inh -4%, CCT chaperon mod -2, hERG WT inh 2, Rango dissoc inh 3% and KCNH2 3.1 inh -12.
For Cc1nc(N2CCN(c3ccccn3)CC2)c2c(C)c(C(=O)Nc3c(C)cc(Br)cc3C)sc2n1 the results were MmCpn inh -14%, Rango complex inh -1%, CCT chaperon mod -1, hERG WT inh 1, Rango dissoc inh -7% and KCNH2 3.1 inh -80*.
`O=C1c2cccnc2C(O)N1Cc1ccccc1` (centres undefined) gave MmCpn inh 1%, Rango complex inh 4%, CCT chaperon mod 0, hERG WT inh -5, Rango dissoc inh 1% and KCNH2 3.1 inh -11.
Screening O=C1c2cccnc2C(O)N1Cc1ccc(F)cc1 (centres undefined) returned MmCpn inh 0%, Rango complex inh 4%, CCT chaperon mod -32*, hERG WT inh 32, Rango dissoc inh -8% and KCNH2 3.1 inh -7.
Cc1csc2ncc(C(=O)NC(C)c3ccccc3)c(=O)n12 (centres undefined) was read as MmCpn inh -1%, Rango complex inh 0%, CCT chaperon mod -2, hERG WT inh -2, Rango dissoc inh -7% and KCNH2 3.1 inh -3.

Next section; the last three above are carried over.
`O=C1c2cccnc2C(O)N1Cc1ccccc1` (centres undefined) gave MmCpn inh 1%, Rango complex inh 4%, CCT chaperon mod 0, hERG WT inh -5, Rango dissoc inh 1% and KCNH2 3.1 inh -11.
Screening O=C1c2cccnc2C(O)N1Cc1ccc(F)cc1 (centres undefined) returned MmCpn inh 0%, Rango complex inh 4%, CCT chaperon mod -32*, hERG WT inh 32, Rango dissoc inh -8% and KCNH2 3.1 inh -7.
Cc1csc2ncc(C(=O)NC(C)c3ccccc3)c(=O)n12 (centres undefined) was read as MmCpn inh -1%, Rango complex inh 0%, CCT chaperon mod -2, hERG WT inh -2, Rango dissoc inh -7% and KCNH2 3.1 inh -3.
`O=C(O)/C=C/C(=O)Nc1ccc(C2(c3ccc(NC(=O)/C=C/C(=O)O)cc3)c3ccccc3-c3ccccc32)cc1` gave MmCpn inh -1%, Rango complex inh 1%, CCT chaperon mod -2, hERG WT inh -3, Rango dissoc inh 1% and KCNH2 3.1 inh 5.
`O=C(COC(=O)c1cccc(S(=O)(=O)NCc2ccccc2)c1)c1ccccc1` gave MmCpn inh 1%, Rango complex inh 1%, CCT chaperon mod -1, hERG WT inh 7, Rango dissoc inh -10% and KCNH2 3.1 inh -84*.
`CN1CCC(=C(c2ccccc2)c2ccc(Br)cc2)CC1` gave Rango complex inh 4%, CCT chaperon mod -2, hERG WT inh -37, Rango dissoc inh -9% and KCNH2 3.1 inh -97*.
For COc1ccc(CNC(=O)CCS(=O)(=O)c2ccc3c(c2)NC(=O)CS3)cc1 the results were MmCpn inh 3%, Rango complex inh 3%, CCT chaperon mod 0, hERG WT inh -5, Rango dissoc inh 0% and KCNH2 3.1 inh 9.
CCCCCNc1nc2sc3c(c2c(=O)n1-c1cccc(Cl)c1)CCN(C)C3 was read as MmCpn inh -3%, Rango complex inh inconclusive, CCT chaperon mod 1, hERG WT inh 8, Rango dissoc inh 16µM* and KCNH2 3.1 inh -13.
`COC(=O)Cc1c(C)c2ccc(OCC(=O)NC3CCS(=O)(=O)C3)cc2oc1=O` (centres undefined) gave MmCpn inh -1%, Rango complex inh 3%, CCT chaperon mod -1, hERG WT inh 3, Rango dissoc inh -3% and KCNH2 3.1 inh 1.
For Cc1cc2nn(-c3ccc(Cl)cc3)nc2cc1N the results were MmCpn inh -2%, Rango complex inh inconclusive, CCT chaperon mod 0, hERG WT inh 0, Rango dissoc inh inconclusive and KCNH2 3.1 inh -10.
`Cc1cc2nn(-c3ccc(F)cc3)nc2cc1N` gave MmCpn inh 0%, Rango complex inh inconclusive, CCT chaperon mod -4, hERG WT inh -2, Rango dissoc inh 9.2µM* and KCNH2 3.1 inh 7.
COc1cc(/C=C2\SC(=S)N(Nc3ccccc3)C2=O)ccc1O was read as MmCpn inh -2%, Rango complex inh 37µM*, CCT chaperon mod -2, hERG WT inh -9, Rango dissoc inh 17% and KCNH2 3.1 inh 6.
`O=C(NN1C(=O)/C(=C/c2ccc(O)c(O)c2)SC1=S)c1ccccc1` gave MmCpn inh -7%, Rango complex inh 37µM*, CCT chaperon mod -3, hERG WT inh 15, Rango dissoc inh inconclusive and KCNH2 3.1 inh 1.
`O=C1/C(=C/c2ccc(O)c(O)c2)SC(=S)N1Nc1ccccc1` gave MmCpn inh -3%, Rango complex inh 37µM*, CCT chaperon mod 2, hERG WT inh -12 and Rango dissoc inh 0%.
For CCOc1cc(/C=C2\SC(=S)N(Nc3ccccc3)C2=O)ccc1O the results were MmCpn inh -1%, Rango complex inh 17%, CCT chaperon mod 1, hERG WT inh -4, Rango dissoc inh inconclusive and KCNH2 3.1 inh -30.
Screening COc1cc(OC)c(/C=N/NC(=O)c2ccncc2)c(OC)c1 returned MmCpn inh 1%, Rango complex inh -4%, CCT chaperon mod -1, hERG WT inh 0, Rango dissoc inh 0% and KCNH2 3.1 inh -8.
Screening COc1ccc(CCNC(=O)C2CCCN(S(=O)(=O)c3ccccc3)C2)cc1 (centres undefined) returned MmCpn inh 0%, Rango complex inh 1%, CCT chaperon mod -5, hERG WT inh 2, Rango dissoc inh 22% and KCNH2 3.1 inh 0.

Compound activity (PubChem BioAssay)
